Data published in ChEMBL document CHEMBL1129799, “Homology modeling of metabotropic glutamate receptors. (mGluRs) structural motifs affecting binding modes and pharmacological profile of mGluR1 agonists and competitive antagonists” (J Med Chem, 1996).

Sequences of proteins named here, by UniProt entry; tags and fusion partners are left off. A change or cut given only in a name is not applied to a line headed by its entry.
UniProt Q13255: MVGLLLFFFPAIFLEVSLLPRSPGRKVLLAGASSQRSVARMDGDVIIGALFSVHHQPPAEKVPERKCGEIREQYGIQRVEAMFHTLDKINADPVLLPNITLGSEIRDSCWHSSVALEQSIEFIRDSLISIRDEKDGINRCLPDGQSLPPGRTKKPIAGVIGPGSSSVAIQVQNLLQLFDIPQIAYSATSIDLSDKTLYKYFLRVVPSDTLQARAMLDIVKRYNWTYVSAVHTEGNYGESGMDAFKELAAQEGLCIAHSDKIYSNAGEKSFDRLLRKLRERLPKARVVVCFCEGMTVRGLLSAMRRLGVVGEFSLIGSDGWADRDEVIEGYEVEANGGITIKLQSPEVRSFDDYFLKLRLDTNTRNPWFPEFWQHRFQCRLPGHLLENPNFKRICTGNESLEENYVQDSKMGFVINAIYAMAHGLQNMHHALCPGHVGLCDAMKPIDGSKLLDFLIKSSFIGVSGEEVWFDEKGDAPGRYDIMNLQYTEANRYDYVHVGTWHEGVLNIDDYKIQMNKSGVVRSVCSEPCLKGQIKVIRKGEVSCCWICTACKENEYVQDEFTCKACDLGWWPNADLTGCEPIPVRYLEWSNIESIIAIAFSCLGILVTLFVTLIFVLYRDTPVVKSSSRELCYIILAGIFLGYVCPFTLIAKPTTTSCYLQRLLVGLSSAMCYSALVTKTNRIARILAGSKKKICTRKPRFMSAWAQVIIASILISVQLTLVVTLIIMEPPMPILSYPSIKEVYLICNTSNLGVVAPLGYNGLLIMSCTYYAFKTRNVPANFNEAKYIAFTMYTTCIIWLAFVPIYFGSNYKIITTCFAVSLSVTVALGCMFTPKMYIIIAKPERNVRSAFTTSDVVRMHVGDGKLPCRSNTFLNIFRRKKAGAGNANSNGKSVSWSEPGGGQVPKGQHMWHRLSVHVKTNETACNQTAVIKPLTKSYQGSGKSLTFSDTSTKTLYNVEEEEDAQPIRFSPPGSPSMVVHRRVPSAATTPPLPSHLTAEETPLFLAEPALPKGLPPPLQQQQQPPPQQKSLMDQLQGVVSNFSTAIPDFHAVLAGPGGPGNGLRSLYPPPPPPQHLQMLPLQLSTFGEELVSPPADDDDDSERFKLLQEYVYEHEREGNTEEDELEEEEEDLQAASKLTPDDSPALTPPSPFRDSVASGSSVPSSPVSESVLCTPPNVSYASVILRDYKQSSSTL

Target: Metabotropic glutamate receptor 1 (Homo sapiens, UniProt Q13255)
Test: Effective concentration for half maximal stimulation of PI hydrolysis (mGluR1a)

N[C@@]1(C(=O)O)CC[C@@H](C(=O)O)C1
EC50: 22 µM
